The entries are a selection whose mix differs from that of the whole data set. The source made the active and inactive calls. Rule as the data show it: active = inhibition above about 34%; inactive = the rest.
Each compound was assayed against Diacylglycerol lipase-beta (Homo sapiens) (UniProt Q8NCG7) (assay: DAGLB lipase inhibitors, primary screen, biochemical, fluorescence, HTS (AID 504411;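 also: 0% = enzyme with vehicle and 100% = wells lacking enzyme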)). Details: HEK293T DAGLB membrane lysate, EnzChek fluorogenic substrate; at 5.17 µM; stronger effect = higher value.

Sequences of proteins named here, by UniProt entry; tags and fusion partners are left off.
UniProt Q8NCG7, whole entry: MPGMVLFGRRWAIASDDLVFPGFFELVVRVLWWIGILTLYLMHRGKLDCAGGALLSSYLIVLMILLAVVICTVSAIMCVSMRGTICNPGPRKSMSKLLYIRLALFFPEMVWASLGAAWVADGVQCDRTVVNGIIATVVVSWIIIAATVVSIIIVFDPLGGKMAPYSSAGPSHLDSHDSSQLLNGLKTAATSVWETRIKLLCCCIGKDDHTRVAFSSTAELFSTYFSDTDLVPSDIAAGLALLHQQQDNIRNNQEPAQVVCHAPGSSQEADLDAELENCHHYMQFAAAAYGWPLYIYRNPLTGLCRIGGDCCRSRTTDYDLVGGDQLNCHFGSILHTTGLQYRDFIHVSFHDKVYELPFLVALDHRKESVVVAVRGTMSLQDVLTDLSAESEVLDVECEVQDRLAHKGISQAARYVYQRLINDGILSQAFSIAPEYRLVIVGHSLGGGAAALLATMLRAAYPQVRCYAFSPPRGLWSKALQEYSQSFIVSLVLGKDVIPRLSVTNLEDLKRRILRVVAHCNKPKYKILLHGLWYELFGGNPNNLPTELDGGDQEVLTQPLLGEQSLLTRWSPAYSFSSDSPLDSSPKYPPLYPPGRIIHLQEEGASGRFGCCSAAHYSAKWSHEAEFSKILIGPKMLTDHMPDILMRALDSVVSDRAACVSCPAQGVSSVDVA

| SMILES | inhibition |
| --- | --- |
| CCC(=O)N(c1ccccc1)C1(COC)CCN(CCc2cccs2)CC1 | inactive: -2.02% |
| CCC(=O)N(c1ccccc1)C1(COC)CCN(CCn2nnn(CC)c2=O)CC1 | inactive: 1.31% |

Source: PubChem BioAssay AID504411 (The Scripps Research Institute Molecular Screening Center, 2011)
